Results reported in paper PMC12102759 (Protein Science : A Publication of the Protein Society, 2025).

By UniProt entry, the sequences of proteins in these tests, tags left out. Residues count along the entry.
UniProt Q9Y490, 309-401: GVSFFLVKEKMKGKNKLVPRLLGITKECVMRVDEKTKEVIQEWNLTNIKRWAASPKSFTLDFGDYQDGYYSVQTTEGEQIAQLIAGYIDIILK

Target: TLN1 PTB (Homo sapiens, UniProt Q9Y490)
Type: binding

Sequence | DMS-derived PSSM value of the single-substitution variant
TDERSWVYSPLHYSAQ E3D (TDDRSWVYSPLHYSAQ) | 0.01286
TDERSWVYSPLHYSAQ E3E | 0.2011
TDERSWVYSPLHYSAQ E3F (TDFRSWVYSPLHYSAQ) | 0.08854
TDERSWVYSPLHYSAQ E3G (TDGRSWVYSPLHYSAQ) | 0.05173
TDERSWVYSPLHYSAQ E3H (TDHRSWVYSPLHYSAQ) | 0.0111
TDERSWVYSPLHYSAQ E3I (TDIRSWVYSPLHYSAQ) | 0.04321
TDERSWVYSPLHYSAQ E3K (TDKRSWVYSPLHYSAQ) | 0.03736
TDERSWVYSPLHYSAQ E3L (TDLRSWVYSPLHYSAQ) | 0.07536
TDERSWVYSPLHYSAQ E3M (TDMRSWVYSPLHYSAQ) | 0.0514
TDERSWVYSPLHYSAQ E3N (TDNRSWVYSPLHYSAQ) | 0.0399
TDERSWVYSPLHYSAQ E3P (TDPRSWVYSPLHYSAQ) | 0.00481
TDERSWVYSPLHYSAQ E3Q (TDQRSWVYSPLHYSAQ) | 0.01068
TDERSWVYSPLHYSAQ E3R (TDRRSWVYSPLHYSAQ) | 0.02636
TDERSWVYSPLHYSAQ E3S (TDSRSWVYSPLHYSAQ) | 0.06118
TDERSWVYSPLHYSAQ E3T (TDTRSWVYSPLHYSAQ) | 0.0286
TDERSWVYSPLHYSAQ E3V (TDVRSWVYSPLHYSAQ) | 0.0174
TDERSWVYSPLHYSAQ E3W (TDWRSWVYSPLHYSAQ) | 0.2032
TDERSWVYSPLHYSAQ E3Y (TDYRSWVYSPLHYSAQ) | 0.02785
TDERSWVYSPLHYSAQ H12A (TDERSWVYSPLAYSAQ) | 0.03687
TDERSWVYSPLHYSAQ H12D (TDERSWVYSPLDYSAQ) | 0.03485
TDERSWVYSPLHYSAQ H12E (TDERSWVYSPLEYSAQ) | 0.04351

Sequence | DMS-derived PSSM value of the single-substitution variant
TDERSWVYSPLHYSAQ H12F (TDERSWVYSPLFYSAQ) | 0.04135
TDERSWVYSPLHYSAQ H12G (TDERSWVYSPLGYSAQ) | 0.06732
TDERSWVYSPLHYSAQ H12H | 0.2004
TDERSWVYSPLHYSAQ H12I (TDERSWVYSPLIYSAQ) | 0.01718
TDERSWVYSPLHYSAQ H12K (TDERSWVYSPLKYSAQ) | 0.007422
TDERSWVYSPLHYSAQ H12L (TDERSWVYSPLLYSAQ) | 0.03602
TDERSWVYSPLHYSAQ H12M (TDERSWVYSPLMYSAQ) | 0.04333
TDERSWVYSPLHYSAQ H12N (TDERSWVYSPLNYSAQ) | 0.1359
TDERSWVYSPLHYSAQ H12P (TDERSWVYSPLPYSAQ) | 0.02759
TDERSWVYSPLHYSAQ H12Q (TDERSWVYSPLQYSAQ) | 0.1187
TDERSWVYSPLHYSAQ H12R (TDERSWVYSPLRYSAQ) | 0.004644
TDERSWVYSPLHYSAQ H12S (TDERSWVYSPLSYSAQ) | 0.004182
TDERSWVYSPLHYSAQ H12T (TDERSWVYSPLTYSAQ) | 0.0817
TDERSWVYSPLHYSAQ H12V (TDERSWVYSPLVYSAQ) | 0.08395
TDERSWVYSPLHYSAQ H12W (TDERSWVYSPLWYSAQ) | 0.008167
TDERSWVYSPLHYSAQ H12Y (TDERSWVYSPLYYSAQ) | 0.006924
TDERSWVYSPLHYSAQ L11A (TDERSWVYSPAHYSAQ) | 0.03143
TDERSWVYSPLHYSAQ L11D (TDERSWVYSPDHYSAQ) | 0
TDERSWVYSPLHYSAQ L11E (TDERSWVYSPEHYSAQ) | 0.02353
TDERSWVYSPLHYSAQ L11F (TDERSWVYSPFHYSAQ) | 0.02179
TDERSWVYSPLHYSAQ L11G (TDERSWVYSPGHYSAQ) | 0.01735

Sequence | DMS-derived PSSM value of the single-substitution variant
TDERSWVYSPLHYSAQ L11H (TDERSWVYSPHHYSAQ) | 0.019
TDERSWVYSPLHYSAQ L11I (TDERSWVYSPIHYSAQ) | 0.1158
TDERSWVYSPLHYSAQ L11K (TDERSWVYSPKHYSAQ) | 0.005533
TDERSWVYSPLHYSAQ L11L | 0.4566
TDERSWVYSPLHYSAQ L11M (TDERSWVYSPMHYSAQ) | 0.02298
TDERSWVYSPLHYSAQ L11N (TDERSWVYSPNHYSAQ) | 0.005496
TDERSWVYSPLHYSAQ L11P (TDERSWVYSPPHYSAQ) | 0.007293
TDERSWVYSPLHYSAQ L11Q (TDERSWVYSPQHYSAQ) | 0.001723
TDERSWVYSPLHYSAQ L11R (TDERSWVYSPRHYSAQ) | 0.04001
TDERSWVYSPLHYSAQ L11S (TDERSWVYSPSHYSAQ) | 0.001877
TDERSWVYSPLHYSAQ L11T (TDERSWVYSPTHYSAQ) | 0.1092
TDERSWVYSPLHYSAQ L11V (TDERSWVYSPVHYSAQ) | 0.0645
TDERSWVYSPLHYSAQ L11W (TDERSWVYSPWHYSAQ) | 0.04442
TDERSWVYSPLHYSAQ L11Y (TDERSWVYSPYHYSAQ) | 0.01142
TDERSWVYSPLHYSAQ P10A (TDERSWVYSALHYSAQ) | 0.0572
TDERSWVYSPLHYSAQ P10D (TDERSWVYSDLHYSAQ) | 0.02825
TDERSWVYSPLHYSAQ P10E (TDERSWVYSELHYSAQ) | 0.01248
TDERSWVYSPLHYSAQ P10F (TDERSWVYSFLHYSAQ) | 0.04613
TDERSWVYSPLHYSAQ P10G (TDERSWVYSGLHYSAQ) | 0.05499
TDERSWVYSPLHYSAQ P10H (TDERSWVYSHLHYSAQ) | 0.0683
TDERSWVYSPLHYSAQ P10I (TDERSWVYSILHYSAQ) | 0.006309

Sequence | DMS-derived PSSM value of the single-substitution variant
TDERSWVYSPLHYSAQ P10K (TDERSWVYSKLHYSAQ) | 0.1554
TDERSWVYSPLHYSAQ P10L (TDERSWVYSLLHYSAQ) | 0.1545
TDERSWVYSPLHYSAQ P10M (TDERSWVYSMLHYSAQ) | 0.02991
TDERSWVYSPLHYSAQ P10N (TDERSWVYSNLHYSAQ) | 0.09594
TDERSWVYSPLHYSAQ P10P | 0.1798
TDERSWVYSPLHYSAQ P10Q (TDERSWVYSQLHYSAQ) | 0.02435
TDERSWVYSPLHYSAQ P10R (TDERSWVYSRLHYSAQ) | 0.01859
TDERSWVYSPLHYSAQ P10S (TDERSWVYSSLHYSAQ) | 0.01332
TDERSWVYSPLHYSAQ P10T (TDERSWVYSTLHYSAQ) | 0.03225
TDERSWVYSPLHYSAQ P10V (TDERSWVYSVLHYSAQ) | 0.01176
TDERSWVYSPLHYSAQ P10W (TDERSWVYSWLHYSAQ) | 0.002007
TDERSWVYSPLHYSAQ P10Y (TDERSWVYSYLHYSAQ) | 0.008467
TDERSWVYSPLHYSAQ R4A (TDEASWVYSPLHYSAQ) | 0.1059
TDERSWVYSPLHYSAQ R4D (TDEDSWVYSPLHYSAQ) | 0.2233
TDERSWVYSPLHYSAQ R4E (TDEESWVYSPLHYSAQ) | 0.03067
TDERSWVYSPLHYSAQ R4F (TDEFSWVYSPLHYSAQ) | 0.02428
TDERSWVYSPLHYSAQ R4G (TDEGSWVYSPLHYSAQ) | 0.05137
TDERSWVYSPLHYSAQ R4H (TDEHSWVYSPLHYSAQ) | 0.0204
TDERSWVYSPLHYSAQ R4I (TDEISWVYSPLHYSAQ) | 0.00064
TDERSWVYSPLHYSAQ R4K (TDEKSWVYSPLHYSAQ) | 0.003744
